Data from patent US12393007B2, “Method for adapting optical properties of an immersion mixture, and immersion mixtures and components thereof” (Carl Zeiss Microscopy GmbH, priority 2018, dated 2025).
Some compounds may have been tested in ways that are not shown here.

Assay: Refractive index ne at 23° C., reference wavelength 546.1 nm
Type: physicochemical
Conditions: pure substance

Compound: OCCN(CCO)CCO
- ne (refractive index) of the substance: 1.4868
